Test results: PMC12035797, “Peptidomimetics Activating the Proteasome: A New Perspective for Parkinson’s Treatment” (Journal of Medicinal Chemistry, 2025)

Target: T1, human 20S proteasome
T1 construct: human proteasome isolated from erythrocytes; from tissue; host or cells: human erythrocytes
Experiment: Microscale thermophoresis (MST) binding to NT-647 labeled proteasome
Conditions: Hill fit, n = 3, read-out: EC50 (binding with h20S)
From the text: One of them tested the ability of the compounds to interact with the human 20S proteasome. We used microscale thermophoresis for this purpose and performed measurements utilizing proteasomes labeled with the NT-647 dye. Using the recorded thermophoretic transitions, we determined proteasome-modulator affinity (Figure 4A,B).
The 20S proteasome was labeled following the manufacturer’s protocol using the RED-NHS 2nd Generation labeling kit, NT-647 (NanoTemper Technologies GmbH, Munich, Germany). Monolith X (NanoTemper) was used to study the interaction between the fluorescently labeled enzyme and the activators. The assay buffer was 50 mM Tris/HCl, pH 7.2, supplemented with 5% glycerol. Serial dilutions of the activators, spanning 16 concentrations from 1.5 nM to 50 μM, were prepared and mixed with the labeled proteasome, whose concentration was kept constant at 10 nM. The IR laser radiation intensity was automatically optimized by the system. MST data were analyzed by fitting the resulting curves using the Hill equation in OriginPro 2021. EC50 values were determined from the results of three independent experiments.

C[C@@H](O)[C@H](NC(=O)[C@H](Cc1ccccc1)NC(=O)[C@H](Cc1ccc(O)cc1)NC(=O)CN(CCCCN)C(=O)[C@H](CCCNC(=N)N)NC(=O)[C@H](CCCNC(=N)N)NC(=O)[C@H](CCCNC(=N)N)NC(=O)[C@H](CCC(N)=O)NC(=O)[C@H](CCCNC(=N)N)NC(=O)[C@H](CCCNC(=N)N)NC(=O)[C@H](CCCCN)NC(=O)[C@H](CCCCN)NC(=O)[C@@H](N)CCCNC(=N)N)C(=O)NCC(=O)N[C@@H](CO)C(=O)N[C@@H](CCCCN)C(=O)N[C@@H](CC(=O)O)C(=O)N[C@@H](Cc1c[nH]c2ccccc12)C(=O)N[C@@H](CCCNC(=N)N)C(=O)N[C@@H](CO)C(=O)N[C@@H](Cc1ccc(O)cc1)C(=O)N[C@@H](Cc1ccc(O)cc1)C(=O)N[C@@H](CO)C(=O)O [1f]
EC50: 1.33 ± 0.09 µM
